Assays:
Experiment in all cases: fluorescence anisotropy displacement
ERhVQSTRL metallopeptide = target: ERhVQSTRL metallopeptide
[1] = target: VQDTRL peptide (CFTR C-terminus) (Homo sapiens)
QLDRhVTR metallopeptide = target: QLDRhVTR metallopeptide
EWPTSII peptide = target: EWPTSII peptide
[2] = target: VQDRhTRL metallopeptide (Homo sapiens)

In the case of “CAL (CFTR-associated ligand) PDZ (from UniProt Q9HD26)”, the Ki (ERhVQSTRL metallopeptide) is reported as 0.56 µM, the Ki [1] is reported as 320 µM and the Ki (QLDRhVTR metallopeptide) is reported as 10 µM. For the same substance, the Ki (EWPTSII peptide) was 65 µM and the Ki [2] was 6.3 µM.
